Assay results published in patent US20130267473A1.

Target: mannose-6-phosphate (M6P) receptor on GM00248 human Pompe fibroblasts (human)
Assay: cell-based or functional assay

Kuptake (uptake into GM00248 fibroblasts, non-linear regression of intracellular activity vs enzyme concentration) [nM]	uptake efficiency relative to Myozyme® in GM00248 fibroblasts (times (vs Myozyme®))	uptake relative to Myozyme® in GM00248 fibroblasts, 1000 U/ml, 14 h and 46 h (times (vs Myozyme®))	Substance
1.7	30	–	purified huGAA uncapped and demannosylated with CcMan5 and JbMan (Example 11) (from UniProt P10253 57-952) (enzyme)
–	2.5	–	huGAA_JBMan (recombinant human alpha glucosidase from Y. lipolytica OXYY1589, uncapped and de-mannosylated with Jack bean alpha-mannosidase) (from UniProt P10253 57-952) (enzyme)
64	–	–	Myozyme® (alglucosidase alpha, Genzyme), commercial human alpha-glucosidase (from UniProt P10253 57-952)
–	2.5	1.8	huGAA_CcMan4/5 (recombinant human alpha glucosidase from Y. lipolytica OXYY1589, uncapped with CcMan5 and de-mannosylated with CcMan4) (from UniProt P10253 57-952) (enzyme)
